Results: patent publication US10342867B2 (priority 2014, dated 2019)

Tests used:
[1] = rabbit, in vivo
[2] = rabbit, in vivo; remark: listed apart in the source
[3] = rabbit, in vivo; remark: listed apart in the source

galactose decanoic acid polysulphate ester [G10-POLY]
Body weight gain one week post immunization 1, mean [1]: 17 g | Body weight gain two weeks post immunization 1, mean [1]: 38 g | Concentration giving 50% hemolysis (sheep red blood cells): 3 µg/mL | Increase in body temperature one day post immunization 1, mean [2]: 0.4 °C | Increase in body temperature two days post immunization 1, mean [2]: 0.0 °C | Reactogenicity 1 week post immunization 2, GMS [3]: 4.09 | Reactogenicity 4 weeks post immunization 1, GMS [3]: 0.75 | Reactogenicity 4 weeks post immunization 1, antilog [3]: 6

maltotriose decanoic acid polysulphate ester [T10-POLY]
Concentration giving 50% hemolysis (sheep red blood cells): 100 µg/mL

maltotriose nona-/decadecanoic acid monosulphate ester [T10-MONO]
Concentration giving 50% hemolysis (sheep red blood cells): >10000 µg/mL | hemolytic activity, fold lower than that of the POLYs (sheep red blood cells): 100 to >3000

Monosulphate heptadecylmaltose [M10-MONO]
Concentration giving 50% hemolysis (sheep red blood cells): >10000 µg/mL | hemolytic activity, fold lower than that of the POLYs (sheep red blood cells): 100 to >3000

galactose tetradecanoic acid monosulphate ester [G10-MONO]
Body weight gain one week post immunization 1, mean [1]: 75 g | Body weight gain two weeks post immunization 1, mean [1]: 138 g | Concentration giving 50% hemolysis (sheep red blood cells): >10000 µg/mL | hemolytic activity, fold lower than that of the POLYs (sheep red blood cells): 100 to >3000 | Increase in body temperature one day post immunization 1, mean [2]: 0.3 °C | Increase in body temperature two days post immunization 1, mean [2]: 0.0 °C | increases in body temperature in comparison to the corresponding POLY counterpart [2]: lower increases | Reactogenicity 1 week post immunization 2, GMS [3]: 1.70 | Reactogenicity 1 week post immunization 2, antilog [3]: 51 | Reactogenicity 4 weeks post immunization 1, GMS [3]: 0.21 | Reactogenicity 4 weeks post immunization 1, antilog [3]: 2 | Toxicity score of the site of injection, individual animal [3]: 0.10 | Toxicity score of the site of injection, individual animal, antilog [3]: 1

maltose decanoic acid polysulphate ester [M10-POLY]
Concentration giving 50% hemolysis (sheep red blood cells): 300 µg/mL
